Consider two compounds from PubChem BioAssay AID624171 (National Center for Advancing Translational Sciences (NCATS), 2012).

The entries are a selection whose mix differs from that of the whole data set. Active and inactive are the calls of the source. Calls follow the shape of the dose curve; as a rule, active = well fitted activation curve with a large enough effect; inconclusive = small, poorly fitted or top-dose-only effect; inactive = flat fitted curve, though single readings scatter.

The nature of this experiment: qHTS of Nrf2 Activators. Also: % of control where 0% means no effect; nearly all actives have a fitted effect of over 65% in size. The note with it: AREc32 ARE-luciferase reporter (MCF7-derived line), luminescence, 24 h; at 46.1 µM (top of the series). The text has this: Many diseases have some form of oxidative stress injury and ties to inflammation, causing a host of problems for the patient. The antioxidant response element (ARE) plays an important role in alleviating the harmful effects of oxidative stress. The antioxidant response element (ARE) is a transcriptional regulatory element involved in the activation of genes coding for a number of antioxidant proteins and detoxifying enzymes. These enzymes work in concert to protect tissues from oxidative insults and chemical toxicities in human hepatocytes and immune cells. The protective effects of ARE activation are primarily triggered through Nrf2 (NF-E2-related factor) binding to and activating AREs. It is known that Nrf2 controls the production of over 250 antioxidant and detoxification proteins (Hu et al., 2006), thereby protecting tissues by increasing cellular antioxidant content and suppressing inflammatory signaling pathways. The transcription factor Nrf2 is a central link between oxidative chemicals, such as phenolic antioxidants and electrophilic compounds, and the activation of ARE. […]
5 uL of 1000 cells/well of AREc32_Fluc cells are seeded into 1536-well plate in OPTI-MEM medium with 5% FBS. […] After the addition of 2.5 uL of Steady-Glo. the plates are kept at RT for 30 min, before they are read on the ViewLux.
In general terms: In qHTS, concentration-response curves come from the screen itself.
On to `CCC(=O)N(c1ccccc1)C1(COC)CCN(CCn2nnn(CC)c2=O)CC1`, for which the activation was inactive: 0.764%. On to `CCC(=O)N(c1ccccc1)C1(COC)CCN(CCc2cccs2)CC1`, for which the activation was inactive: -1.02%.
